# This is a selection; strong and weak results do not stand in their true shares. Some of these compounds have results that are not shown, active ones among them. Activity calls are given as the source filed them. Cut-off read from the data, not from the text of the source: active = inhibition above about 25%; inactive = the rest.
# Test: unspecified inhibition readout at 50 µM (AID 740)
# Settings: unspecified screen; stronger effect = higher value
row,SMILES,inhibition
1,CC(C)N1C(=O)CC2(CCN(CCOC(=O)C(O)(c3ccccc3)c3ccccc3)CC2)C1=O,inactive
2,CN(C)c1cccc(C(=O)NCC2(N(C)C)CCCCC2)c1,inactive: 1.93%
3,O=C(OC1CN2CCC1CC2)C(CO)(c1ccccc1)c1ccccc1 (stereo not drawn),inactive

# Reference: PubChem BioAssay AID740 (SRMLSC, 2007)
